From patent publication US20260382605A1, “REVERSIBLE MACROCYCLIC KINASE INHIBITORS” (published 2026)

Sequences of proteins named here, by UniProt entry; tags and fusion partners are left off.
UniProt Q02750, whole entry: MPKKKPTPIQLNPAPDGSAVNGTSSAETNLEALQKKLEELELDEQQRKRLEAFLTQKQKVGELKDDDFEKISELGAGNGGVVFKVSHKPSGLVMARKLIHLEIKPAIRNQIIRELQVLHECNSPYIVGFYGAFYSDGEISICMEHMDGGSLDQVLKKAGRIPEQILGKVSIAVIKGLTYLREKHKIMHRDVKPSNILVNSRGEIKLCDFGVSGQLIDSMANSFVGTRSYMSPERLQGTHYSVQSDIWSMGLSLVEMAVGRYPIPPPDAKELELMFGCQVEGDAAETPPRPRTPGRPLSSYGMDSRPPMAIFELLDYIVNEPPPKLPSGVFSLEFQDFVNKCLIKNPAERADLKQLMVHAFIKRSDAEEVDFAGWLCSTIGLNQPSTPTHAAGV
UniProt P07948, whole entry: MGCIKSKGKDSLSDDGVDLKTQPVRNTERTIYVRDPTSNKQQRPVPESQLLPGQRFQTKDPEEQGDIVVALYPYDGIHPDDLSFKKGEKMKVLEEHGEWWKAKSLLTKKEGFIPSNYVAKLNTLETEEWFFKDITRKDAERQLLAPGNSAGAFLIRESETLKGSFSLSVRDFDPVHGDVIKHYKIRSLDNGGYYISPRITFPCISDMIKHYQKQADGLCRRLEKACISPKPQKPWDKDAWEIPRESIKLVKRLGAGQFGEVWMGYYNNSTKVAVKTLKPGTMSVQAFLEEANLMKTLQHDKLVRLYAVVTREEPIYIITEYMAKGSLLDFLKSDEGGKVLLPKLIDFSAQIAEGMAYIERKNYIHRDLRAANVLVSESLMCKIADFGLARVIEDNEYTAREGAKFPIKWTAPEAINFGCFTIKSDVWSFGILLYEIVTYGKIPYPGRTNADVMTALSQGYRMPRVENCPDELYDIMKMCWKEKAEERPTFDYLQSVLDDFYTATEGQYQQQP
UniProt P06239, whole entry: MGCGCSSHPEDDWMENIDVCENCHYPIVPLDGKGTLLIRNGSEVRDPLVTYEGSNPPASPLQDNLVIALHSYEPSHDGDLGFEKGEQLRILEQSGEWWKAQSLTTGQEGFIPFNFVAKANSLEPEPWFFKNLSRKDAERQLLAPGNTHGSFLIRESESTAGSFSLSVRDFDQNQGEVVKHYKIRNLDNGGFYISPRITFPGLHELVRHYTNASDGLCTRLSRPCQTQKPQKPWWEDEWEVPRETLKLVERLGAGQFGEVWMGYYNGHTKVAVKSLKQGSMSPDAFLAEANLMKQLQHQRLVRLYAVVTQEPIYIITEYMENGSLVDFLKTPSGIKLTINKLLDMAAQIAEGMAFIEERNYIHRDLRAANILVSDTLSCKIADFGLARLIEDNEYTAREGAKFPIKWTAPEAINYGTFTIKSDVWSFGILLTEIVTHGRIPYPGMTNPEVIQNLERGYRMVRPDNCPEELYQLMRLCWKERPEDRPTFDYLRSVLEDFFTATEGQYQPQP
UniProt Q06187, whole entry: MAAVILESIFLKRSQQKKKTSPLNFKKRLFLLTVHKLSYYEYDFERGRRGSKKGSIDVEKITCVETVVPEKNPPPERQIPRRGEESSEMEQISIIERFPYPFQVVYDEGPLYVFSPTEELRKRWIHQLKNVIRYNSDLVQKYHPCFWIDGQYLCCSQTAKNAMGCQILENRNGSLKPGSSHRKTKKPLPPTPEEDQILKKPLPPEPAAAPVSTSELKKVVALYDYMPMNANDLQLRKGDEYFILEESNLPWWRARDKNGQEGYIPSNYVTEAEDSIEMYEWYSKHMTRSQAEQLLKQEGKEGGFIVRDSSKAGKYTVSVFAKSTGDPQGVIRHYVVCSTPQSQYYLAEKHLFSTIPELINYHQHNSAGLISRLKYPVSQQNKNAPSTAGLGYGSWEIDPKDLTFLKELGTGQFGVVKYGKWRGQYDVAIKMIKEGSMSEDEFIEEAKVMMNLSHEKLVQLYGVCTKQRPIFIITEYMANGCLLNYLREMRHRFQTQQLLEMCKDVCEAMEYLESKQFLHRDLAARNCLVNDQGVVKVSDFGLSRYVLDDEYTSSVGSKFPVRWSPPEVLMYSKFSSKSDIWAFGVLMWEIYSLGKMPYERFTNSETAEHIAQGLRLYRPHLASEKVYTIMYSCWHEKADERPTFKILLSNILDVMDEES

Key:
[1] = system: MOLM-13 acute myelogenous leukemia cells; assay: Cell proliferation assay MOLM-13; conditions: read-out: IC50 value, MOLM-13 cells, 72 hours
Method: (§1) MOLM-13 acute myelogenous leukemia cells were purchased from Deutsche Sammlung von Mikroorganismen und Zellkulturen (cat. no. ACC 554, DSMZ). Frozen stocks were thawed and cells were diluted in RPMI-1640 cell culture medium (cat. no. 61870036, Life Technologies), supplemented with 10% (v/v) bovine calf serum and 1% penicillin/streptavidin. 800 cells per well (in 45 μl) were seeded in a white 384-well culture plate (cat. no. 781080, Greiner Bio-One) and allowed to rest for 24 hours at 37 °C, 95% humidity, and 5% CO2. 5 μl compound solution was added to the cells and incubation was continued for 72 hours (3 days), followed by addition of 24 μl ATPlite 1Step™ (PerkinElmer, Groningen, The Netherlands) solution was added to each well. Luminescence was recorded on an Envision multimode reader. The cell signal at the start of incubation was recorded separately in order to distinguish between cell population growth and cell death. In addition, maximum growth was determined by incubation of a duplicate without compound in the presence of 0.3% DMSO. Percentage growth was used as the main y-axis signal. IC50s were fitted by non-linear regression using IDBS XLfit™5 using a 4-parameter logistic curve, yielding a maximum signal, minimum signal, hill-parameter and IC50.

[2] = target: MEK1 (Homo sapiens, UniProt Q02750); assay: Binding kinetics assay (surface plasmon resonance) MEK1; conditions: MEK1, SPR, 22 °C
Method: (§2) Binding Kinetics Assay wt-BTK, BTK C481S, LCK, FGFR1, FLT3, PDGFR-β, FMS, LYN, MEK1, AUR-B. ITK. VEGFR, EGFR, FGFR3, AXL, c-MET, SRC, YES, ABL, RET and IGFR1 (Surface Plasmon Resonance)
(§3) Streptavidin-coated chips (Cat. No. BR100531), disposables and maintenance kits for Biacore were purchased from Cytiva (Eindhoven, The Netherlands). […] The kinetic constants of the compounds were determined with single cycle kinetics with five consecutive injections with an increasing compound concentration with ranges of 3.16-316 nM. […] The SPR sensorgrams were analyzed with Biacore Evaluation Software by using a method of double referencing. […] Target residence time (τ) for the 1:1 binding model was calculated from the dissociation constant kd with the formula T=1/kd. Target residence for an induced fit model was calculated as described (Tummino and Copeland, 2008).

[3] = target: Lyn (Homo sapiens, UniProt P07948); assay: Binding kinetics assay (surface plasmon resonance) LYN; conditions: SPR, 22 °C
Method: as §2, §3

[4] = system: CCRF-HSB-2 T acute lymphoblastic leukemia cells; assay: Cell proliferation assay CCRF-HSB-2; conditions: read-out: IC50 value, CCRF-HSB-2 cells, 72 hours
Method: as §1, with “CCRF-HSB-2 T” for “MOLM-13”, “lymphoblastic” for “myelogenous”, “435,” for “554,”, “3200” for “800”

[5] = target: LCK (Homo sapiens, UniProt P06239); assay: Binding kinetics assay (surface plasmon resonance) LCK; conditions: SPR, 22 °C
[6] = target: BTK (Act) (Homo sapiens, UniProt Q06187); assay: Binding kinetics assay (surface plasmon resonance) wt-BTK; conditions: SPR, 22 °C
Text: as §2
Streptavidin-coated chips (Cat. No. BR100531), disposables and maintenance kits for Biacore were purchased from Cytiva (Eindhoven, The Netherlands). Biotinylated wt-BTK enzym (Carna Biosciences, cat. no. 08-480-20N), BTK C481S (Carna Biosciences, cat. no. 08-417-20N), LCK (Carna Biosciences, cat. no. 08-470-20N), FGFR1 (Carna Biosciences, cat. no. 08-435-20N), FLT3 (Carna Biosciences, cat. no. 08-454-20N), PDGFR-β (Carna Biosciences, cat. no. 08-458-20N), FMS (Carna Biosciences, cat. no. 08-455-20N), LYN (Carna Biosciences, cat. no. 08-471-20N), MEK1 (Carna Biosciences, cat. no. 07-441-10-20N), AUR-B (Carna Biosciences, cat. no. 05-402-21N), ITK (Carna Biosciences, cat. no. 08-481-20N), VEGFR (Carna Biosciences, cat. no. 08-491-20N), EGFR (Carna Biosciences, cat. no. 08-415-20N), FGFR3 (Carna Biosciences, cat. no. 08-433-20N), AXL (Carna Biosciences, cat. no. 08-407-20N), c-MET (Carna Biosciences, cat. no. 08-451-20N), SRC (Carna Biosciences, cat. no. 08-473-20N), YES (Carna Biosciences, cat. no. 08-475-20N), ABL (Carna Biosciences, cat. no. 08-401-20N), RET (Carna Biosciences, cat. no. 08-459-20N) or IGFR1 (Carna Biosciences, cat. no. 08-441-20N) were immobilized on a streptavidin-coated chip to a level of about 8000 resonance units (RU) using Biacore buffer (50 mM Tris pH 7.5, 0.05% (v/v) Tween-20, 150 mM NaCl and 5 mM MgCl2)+1 mM TCEP. Remaining streptavidin was blocked with biocytin. Immobilization was performed at 4 °C. Subsequent assay steps were conducted at 22 °C. After changing buffer to Biacore buffer with 1% (v/v) dimethylsulfoxide (DMSO), a pre-run was performed for a period of at least 30 min at a flow rate of 30 μl/min to obtain a stable surface. The kinetic constants of the compounds were determined with single cycle kinetics with five consecutive injections with an increasing compound concentration with ranges of 3.16-316 nM. Experiments were performed with an association time of 100 s per concentration and a dissociation time of 1200 s, except for compounds with a long target residence time, such as irreversible inhibitors, where dissociation time was increased. To circumvent problems of mass transport limitation, a flow rate of 30 μl/min was used. A blank run with the same conditions was performed before the compound was injected. The SPR sensorgrams were analyzed with Biacore Evaluation Software by using a method of double referencing. First the reference channel was subtracted from the channel containing immobilized protein. Subsequently, the reference curve obtained with buffer injections was subtracted. The resulting curve was fitted with a 1:1 binding model. Compounds that bound according to an induced fit model were fitted with a two-state reaction model. The kinetic constants (ka, […], KD) of duplicates were geometrically averaged. Target residence time (τ) for the 1:1 binding model was calculated from the dissociation constant kd with the formula T=1/kd. Target residence for an induced fit model was calculated as described (Tummino and Copeland, 2008).

IC50 [1] [nM]	Kd [2] [nM]	Kd [3] [nM]	Target residence time Tau (τ) [3]	IC50 [4] [nM]	Kd [5] [nM]	Target residence time Tau (τ) [6]	Compound
< 75							CC(C)(C)c1cc(NC(=O)Cc2ccc(-c3nc4n5c(cnc(N)c35)/C=C/CCOCCC(=O)N[C@@H]3CCC[C@@H]4C3)cc2)no1
	< 5	< 5	B (τ between 1 and 3 h)	< 50	< 5	C (τ 3 h)	Nc1ncc2c3c1c(-c1ccc(C(=O)Nc4cc(C(F)(F)F)ccn4)cc1)nn3[C@@H]1CCC[C@H](C1)NC(=O)[C@H]1CN(C/C=C/2)CCN1
